Values of other authors in patent US20020032197A1 (priority 1998, published 2002).

Tested on: muscarinic receptors
Conditions: in vitro

O=C(NCCN1CCOCC1)c1ccc(Cl)cc1 [moclobemide, p-chloro-N-(2-morpholinoethyl)-benzamide]
affinity for muscarinic receptors: no appreciable affinity
